Values quoted from earlier work as cited in patent publication US20160058752A1, “TOPICAL […]-AFFECTIVE (TPNA) THERAPY FOR N[…]” (AFGIN PHARMA, LLC, priority 2014, published 2016).

Tested on: opiate receptors on nerve endings
Conditions: compounded in cold cream, applied locally to the skin at areas of pain; cited from earlier work

Question: With CN1CC[C@]23c4c5ccc(O)c4O[C@H]2[C@@H](O)C=C[C@H]3[C@H]1C5 [morphine] as the compound, how does the pain relief read?
Answer: provided relief
